{
  "sequences": {"note": "The chains behind the UniProt entries cited, without tags or fusion partners.", "UniProt O75164, whole entry": "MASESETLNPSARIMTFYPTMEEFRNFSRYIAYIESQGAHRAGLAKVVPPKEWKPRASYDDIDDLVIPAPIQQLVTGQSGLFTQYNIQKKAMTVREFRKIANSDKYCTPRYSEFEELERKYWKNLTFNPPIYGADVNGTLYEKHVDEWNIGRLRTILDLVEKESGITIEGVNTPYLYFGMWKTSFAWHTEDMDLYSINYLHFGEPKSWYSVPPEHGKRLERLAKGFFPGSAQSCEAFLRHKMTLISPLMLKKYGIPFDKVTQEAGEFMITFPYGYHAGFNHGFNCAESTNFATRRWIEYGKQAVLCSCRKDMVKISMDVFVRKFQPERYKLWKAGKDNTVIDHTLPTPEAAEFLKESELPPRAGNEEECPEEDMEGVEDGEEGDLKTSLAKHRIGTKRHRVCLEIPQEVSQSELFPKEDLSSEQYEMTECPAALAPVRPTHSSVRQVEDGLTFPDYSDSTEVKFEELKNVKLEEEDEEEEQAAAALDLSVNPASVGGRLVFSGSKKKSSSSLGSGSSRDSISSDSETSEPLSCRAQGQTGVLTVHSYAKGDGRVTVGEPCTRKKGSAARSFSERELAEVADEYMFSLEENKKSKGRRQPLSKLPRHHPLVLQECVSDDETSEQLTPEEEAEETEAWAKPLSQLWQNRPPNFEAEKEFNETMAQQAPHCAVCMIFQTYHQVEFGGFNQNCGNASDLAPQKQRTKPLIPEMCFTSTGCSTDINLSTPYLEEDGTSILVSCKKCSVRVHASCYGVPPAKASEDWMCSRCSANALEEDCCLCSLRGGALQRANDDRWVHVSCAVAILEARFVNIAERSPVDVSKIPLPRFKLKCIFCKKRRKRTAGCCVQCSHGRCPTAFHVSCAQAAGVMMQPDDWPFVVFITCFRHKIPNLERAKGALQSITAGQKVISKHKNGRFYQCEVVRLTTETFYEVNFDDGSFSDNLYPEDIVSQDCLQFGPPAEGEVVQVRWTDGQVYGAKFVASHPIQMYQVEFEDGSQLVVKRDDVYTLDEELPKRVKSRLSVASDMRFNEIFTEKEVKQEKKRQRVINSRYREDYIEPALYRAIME"},
  "source": "PubChem BioAssay AID504339",
  "about": "(National Center for Advancing Translational Sciences (NCATS), 2011)",
  "note": "This is a selection; strong and weak results do not stand in their true shares. Inconclusive results are not listed. Where a call stands in place of a potency, no number is given. Activity calls are given as the source filed them. The call rests on the fitted dose curve; in most records, active means well fitted inhibition curve with a large enough effect; inconclusive means small, poorly fitted or top-dose-only effect; inactive means no such curve, though single readings can be large or run the other way. Potency means the concentration at half of the fitted maximal effect.",
  "data": [
    {"biological_target": "Lysine-specific demethylase 4A (Homo sapiens) (UniProt O75164)", "assay": "qHTS Assay for Inhibitors of JMJD2A-Tudor Domain; further: nearly all actives have a fitted effect of over 50% in size", "conditions": "AlphaScreen JMJD2A-Tudor / H3K4me3 peptide binding; series mostly up to 114 µM", "values": [
      {"smiles": "CC(C)c1ccc(OP(C)(=O)Nc2ccc(SC(F)(F)F)cc2)cc1", "note": "(stereo not given)", "Potency": "inactive"},
      {"smiles": "CP(=O)(Nc1ccccc1F)Oc1ccccc1", "note": "(stereo not given)", "Potency": "inactive"},
      {"smiles": "O=C(OCCN1CCN(CCOCc2ccccc2)CC1)C(O)(c1ccccc1)c1ccccc1", "Potency": "inactive"},
      {"smiles": "COc1ccc(OP(C)(=O)Nc2ccc(SC(F)(F)F)cc2)cc1", "note": "(stereo not given)", "Potency": "inactive"},
      {"smiles": "CCOC(=O)c1ccc(NP(C)(=O)Oc2ccc(F)cc2)cc1", "note": "(stereo not given)", "Potency": "inactive"},
      {"smiles": "CCCCCOc1ccc(NP(C)(=O)Oc2ccc(Cl)cc2Cl)cc1", "note": "(stereo not given)", "Potency": "inactive"},
      {"smiles": "CP(=O)(Nc1ccccc1)Oc1ccc(F)cc1", "note": "(stereo not given)", "Potency": "inactive"},
      {"smiles": "CCN(CC)CCCOC(=O)C(O)(c1ccccc1)C1CCCCC1", "note": "(stereo not given)", "Potency": "inactive"},
      {"smiles": "COc1ccc(NP(C)(=O)Oc2ccccc2OC)cc1", "note": "(stereo not given)", "Potency": "active: 14.1 µM"},
      {"smiles": "CN(C)CCOC(=O)C(O)(c1ccccc1)C1CCCCC1", "note": "(stereo not given)", "Potency": "inactive"},
      {"smiles": "COc1ccc(OP(C)(=O)Nc2cccc(Br)c2)cc1", "note": "(stereo not given)", "Potency": "inactive"},
      {"smiles": "Cc1c(C(c2ccc3c(c2)OCO3)c2c(C)n(C)n(-c3ccccc3)c2=O)c(=O)n(-c2ccccc2)n1C.O=[N+]([O-])c1cc([N+](=O)[O-])c(O)c([N+](=O)[O-])c1", "Potency": "inactive"},
      {"smiles": "Cc1cc(-c2cccc3ccccc23)c(C)cn1.O=[N+]([O-])c1cc([N+](=O)[O-])c(O)c([N+](=O)[O-])c1", "Potency": "inactive"},
      {"smiles": "O=[N+]([O-])c1ccc(OP2(=O)COCCO2)cc1", "note": "(stereo not given)", "Potency": "inactive"},
      {"smiles": "CCOP(C)(=S)SCC(=O)NC(C)(CC)C(=O)O", "note": "(stereo not given)", "Potency": "inactive"},
      {"smiles": "CP(=O)(Nc1ccc(SC(F)(F)F)cc1)Oc1ccc(F)cc1", "note": "(stereo not given)", "Potency": "inactive"},
      {"smiles": "Cc1ccccc1NP(C)(=O)Nc1ccccc1C", "Potency": "inactive"},
      {"smiles": "CP(=O)(Nc1ccc2c(c1)OCCO2)Oc1ccccc1", "note": "(stereo not given)", "Potency": "inactive"},
      {"smiles": "CCc1ccc(OP(C)(=O)Nc2cccnc2)cc1", "note": "(stereo not given)", "Potency": "inactive"},
      {"smiles": "CP(=O)(Oc1ccccc1)N1CCOC1=O", "note": "(stereo not given)", "Potency": "inactive"},
      {"smiles": "O=C(OCCCN1CCCC1)C(O)(c1ccccc1)C1CCCCC1", "note": "(stereo not given)", "Potency": "inactive"},
      {"smiles": "COc1ccccc1OP(C)(=O)Nc1c(C)n(C)n(-c2ccccc2)c1=O", "note": "(stereo not given)", "Potency": "inactive"},
      {"smiles": "COc1ccc(OP(C)(=O)Nc2ccc(Br)cc2)cc1", "note": "(stereo not given)", "Potency": "inactive"},
      {"smiles": "CCN(CC)CC(O)COC(=O)C(O)(c1ccccc1)C1CCCCC1", "note": "(stereo not given)", "Potency": "inactive"},
      {"smiles": "CN(C)C(=O)c1c([N+](=O)[O-])cc([N+](=O)[O-])cc1[N+](=O)[O-]", "Potency": "inactive"},
      {"smiles": "CP(=O)(Nc1ccc(Cl)cc1)Oc1ccc(F)cc1", "note": "(stereo not given)", "Potency": "inactive"},
      {"smiles": "COc1ccccc1OP(C)(=O)Nc1ccccc1Br", "note": "(stereo not given)", "Potency": "inactive"},
      {"smiles": "CC(C)(C)c1ccc(OP(C)(=O)O)cc1", "Potency": "inactive"},
      {"smiles": "CP(=O)(OC12CC3CC(CC(C3)C1)C2)OC12CC3CC(CC(C3)C1)C2", "Potency": "inactive"},
      {"smiles": "CCOC(=O)c1ccc(NP(C)(=O)Oc2ccc(Cl)cc2)cc1", "note": "(stereo not given)", "Potency": "inactive"},
      {"smiles": "Nc1ccc2c(ccc3cccnc32)n1.O=[N+]([O-])c1cc([N+](=O)[O-])c(O)c([N+](=O)[O-])c1", "Potency": "inactive"},
      {"smiles": "COc1ccc(OP(C)(=O)Nc2ccccc2Br)cc1", "note": "(stereo not given)", "Potency": "inactive"},
      {"smiles": "Cc1cc(C)cc(OP(C)(=O)Nc2cccc(C(F)(F)F)c2)c1", "note": "(stereo not given)", "Potency": "inactive"},
      {"smiles": "CCCCCCCCCCCCCCCC1C[N+](C)(C)CCOP(C)(=O)O1", "note": "(stereo not given)", "Potency": "inactive"},
      {"smiles": "CP(=O)(Nc1ccc(Cl)cc1Cl)Oc1ccccc1", "note": "(stereo not given)", "Potency": "inactive"},
      {"smiles": "CP(=O)(OCCOc1ccccc1)OCCOc1ccccc1", "Potency": "inactive"},
      {"smiles": "CN(C)CCOC(=O)C(O)(c1ccccc1)C1CCCC1", "note": "(stereo not given)", "Potency": "inactive"},
      {"smiles": "COc1ccc(OP(C)(=O)Nc2ccccn2)cc1", "note": "(stereo not given)", "Potency": "inactive"},
      {"smiles": "COc1ccccc1OP(C)(=O)Nc1ccc(Br)cc1", "note": "(stereo not given)", "Potency": "inactive"},
      {"smiles": "CCc1ccc(OP(C)(=O)O)cc1", "Potency": "inactive"},
      {"smiles": "COc1ccccc1OP(C)(=O)Nc1ccc(C)cc1C", "note": "(stereo not given)", "Potency": "inactive"},
      {"smiles": "CP(=O)(Nc1ccccn1)Oc1ccccc1", "note": "(stereo not given)", "Potency": "inactive"},
      {"smiles": "Cc1c(NP(C)(=O)Oc2ccc(C(C)C)cc2)c(=O)n(-c2ccccc2)n1C", "note": "(stereo not given)", "Potency": "inactive"},
      {"smiles": "CCN(CC)CCCOC(=O)C(O)(c1ccccc1)c1ccccc1", "Potency": "inactive"},
      {"smiles": "Cc1cccc(C)c1OP(C)(N)=O", "note": "(stereo not given)", "Potency": "inactive"},
      {"smiles": "CC(C)(C)c1ccc(OP(C)(=O)Nc2ccc(SC(F)(F)F)cc2)cc1", "note": "(stereo not given)", "Potency": "inactive"},
      {"smiles": "O=[N+]([O-])c1ccc2c(c1)C=Nc1ccccc1O2", "Potency": "inactive"},
      {"smiles": "O=[N+]([O-])c1cc([N+](=O)[O-])c(Nc2cccnc2)c([N+](=O)[O-])c1", "Potency": "inactive"},
      {"smiles": "COc1ccc(OP(C)(=O)Nc2cccc(F)c2)cc1", "note": "(stereo not given)", "Potency": "inactive"},
      {"smiles": "COc1ccccc1OP(C)(=O)Nc1cc(Cl)ccc1C", "note": "(stereo not given)", "Potency": "inactive"},
      {"smiles": "Cc1cc(C)cc(OP(C)(N)=O)c1", "note": "(stereo not given)", "Potency": "inactive"},
      {"smiles": "CCOC(=O)c1ccc(NP(C)(=O)Oc2ccccc2)cc1", "note": "(stereo not given)", "Potency": "inactive"},
      {"smiles": "Cc1ccc(NP(C)(=O)Oc2ccccc2)c(C)c1", "note": "(stereo not given)", "Potency": "inactive"},
      {"smiles": "COc1ccccc1OP(C)(=O)Nc1ccc(C)cc1", "note": "(stereo not given)", "Potency": "inactive"},
      {"smiles": "COc1ccccc1OP(C)(=O)Nc1ccccc1", "note": "(stereo not given)", "Potency": "inactive"},
      {"smiles": "CP(=O)(Nc1ccccc1Br)Oc1ccccc1", "note": "(stereo not given)", "Potency": "inactive"},
      {"smiles": "CP(=S)(Nn1cnnc1)Oc1ccccc1", "note": "(stereo not given)", "Potency": "inactive"},
      {"smiles": "Cc1cc(C)cc(OP(C)(=O)Nc2ccc(SC(F)(F)F)cc2)c1", "note": "(stereo not given)", "Potency": "inactive"},
      {"smiles": "CP(=O)(NC(=O)Nc1ccccc1)Oc1ccccc1", "note": "(stereo not given)", "Potency": "inactive"},
      {"smiles": "CP(=O)(Oc1ccccc1)OC(c1ccccc1)C(F)(F)F", "note": "(stereo not given)", "Potency": "inactive"},
      {"smiles": "Cc1cccc(C)c1OP(C)(=O)Nc1ccc(SC(F)(F)F)cc1", "note": "(stereo not given)", "Potency": "inactive"},
      {"smiles": "CP(=O)(Nc1ccc(SC(F)(F)F)cc1)Oc1ccc(Cl)cc1", "note": "(stereo not given)", "Potency": "inactive"},
      {"smiles": "CP(=O)(Nc1ccccn1)Oc1ccc(Cl)cc1", "note": "(stereo not given)", "Potency": "inactive"},
      {"smiles": "CCOP(C)(=S)SCC(=O)NC(C)C(=O)O", "note": "(stereo not given)", "Potency": "inactive"},
      {"smiles": "CCOC(=O)c1ccc(NP(C)(=O)Oc2ccc(OC)cc2)cc1", "note": "(stereo not given)", "Potency": "inactive"},
      {"smiles": "O=[N+]([O-])c1cc([N+](=O)[O-])c(O)c([N+](=O)[O-])c1.c1ccc(Oc2ccncc2)cc1", "Potency": "inactive"},
      {"smiles": "O=[N+]([O-])c1cc([N+](=O)[O-])c(-n2nnc3ccccc32)c([N+](=O)[O-])c1", "Potency": "inactive"},
      {"smiles": "O=[N+]([O-])c1cc([N+](=O)[O-])c(-c2cnn(-c3ccccc3)c2)c([N+](=O)[O-])c1", "Potency": "active: 28.2 µM"},
      {"smiles": "CC1=C2N=C(C=C3N=C(C(C)=C4[N-][C@@](C)([C@@H]5N=C1[C@](C)(CCC(=O)NC[C@@H](C)OP(=O)([O-])O[C@H]1[C@@H](O)[C@@H](n6cnc7cc(C)c(C)cc76)O[C@@H]1CO)[C@H]5CC(N)=O)[C@@](C)(CC(N)=O)[C@@H]4CCC(N)=O)[C@@](C)(CC(N)=O)[C@@H]3CCC(N)=O)C(C)(C)[C@@H]2CCC(N)=O.[C-]#N.[Co+3]", "Potency": "inactive"},
      {"smiles": "CCCOc1ccc(NP(C)(=O)Oc2ccc(Cl)cc2)cc1", "note": "(stereo not given)", "Potency": "inactive"},
      {"smiles": "CP(=O)(Nc1ccc(SC(F)(F)F)cc1)Oc1ccccc1", "note": "(stereo not given)", "Potency": "inactive"},
      {"smiles": "COc1ccccc1OP(C)(=O)Nc1c(C)cccc1C", "note": "(stereo not given)", "Potency": "inactive"},
      {"smiles": "CN1CCCCC1COC(=O)C1(O)c2ccccc2CCc2ccccc21", "note": "(stereo not given)", "Potency": "inactive"},
      {"smiles": "CC1=NCCc2c1[nH]c1ccccc21.O=[N+]([O-])c1cc([N+](=O)[O-])c(O)c([N+](=O)[O-])c1", "Potency": "inactive"},
      {"smiles": "Cc1cc(C)cc(OP(C)(=O)Nc2ccc(C)cc2C)c1", "note": "(stereo not given)", "Potency": "inactive"},
      {"smiles": "CCOC(=O)c1ccc(NP(C)(=O)Oc2cc(C)cc(C)c2)cc1", "note": "(stereo not given)", "Potency": "inactive"},
      {"smiles": "COc1ccccc1OP(C)(=O)Nc1cccc(Br)c1", "note": "(stereo not given)", "activity change, negative = inhibition": "inactive: -6.62% [at 11.4 µM]"},
      {"smiles": "Cc1cc(C)cc(OP(C)(=O)Nc2ccccn2)c1", "note": "(stereo not given)", "Potency": "inactive"},
      {"smiles": "CP(=O)(Nc1cccc(Br)c1)Oc1ccccc1", "note": "(stereo not given)", "Potency": "inactive"},
      {"smiles": "Cc1ccc(C)c(NP(C)(=O)Oc2ccccc2)c1", "note": "(stereo not given)", "Potency": "inactive"}
    ]}
  ]
}
